# TDP1 inh: blocks human tyrosyl-DNA phosphodiesterase 1; Q9NUW8; AID 485290; actives 0.28% (n = 350,000); recombinant TDP1, AlphaScreen DNA substrate cleavage; Potency, µM (series often up to 130 µM), for inactives: at the highest dose activity change, negative = inhibition, actives largely listed as inhibitors; note: potency is the fitted concentration of half-maximal effect; % is set by controls: 0 for no effect and ±100 for the full control effect; nearly all actives have a fitted effect of over 40% in size
#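 Signal: AlphaScreen proximity between streptavidin donor and anti-FITC acceptor beads on intact substrate. Reaction: Tdp1 1 nM, substrate 15 nM final, 5 min RT after 15 min compound preincubation.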
# miR-21 reporter: miR-21 reporter, rising signal; HeLa miR-21 FLuc reporter, luciferase, 48 h; Potency, µM (titrated, usually from 38.3 µM), for the others: at the top dose reporter change, positive = more light; 340,000 tested, under 10 active; AID 2288; active = well fitted rising curve with a large enough effect; inconclusive = small, poorly fitted or top-dose-only effect; inactive = no such curve, though single readings can be large or run the other way;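 also: % of control where 0% means no effect; miR-21 action dims this reporter so a rising signal means less miR-21 action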
#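 Using DMEM plus 10% FBS, HeLa miR-21-FLuc cells are incubated with test compounds (final up to about 40uM) for 48 hours; firefly luciferase signal is then imaged following reagent-mediated lysis.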
# DT40 TDP1 no CPT: qHTS for Inhibitors of human tyrosyl-DNA phosphodiesterase 1 (TDP1): qHTS in cells in absence of CPT; DT40 Tdp1-/- hTDP1 cells, no CPT, ATP luminescence, 48 h; AID 686978, 2013; actives 15% (n = 420,000); Potency, µM (doses to about 46.2 µM), for inactives: top-dose activity change, negative = growth inhibition, actives largely listed as inhibitors; note: potency is the fitted concentration of half-maximal effect; % is set by controls: 0 for no effect and ±100 for the full control effect; nearly all actives have a fitted effect of over 55% in size
#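 Camptothecin absent (DMSO only). Human TDP1-complemented DT40 knockout cells, 400 cells/well, 37 °C for minimum 48 hr; ATP measured via CellTiter-Glo, 30 min dark incubation, luminescence.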
# uPA surface inh: inhibitors of cell surface uPA generation. actives 0.31% (n = 330,000). Potency, µM (doses to about 38.3 µM), for the others: at the top dose activity change, negative = inhibition, usual class: inhibitors. cell surface uPA generation assay, qHTS; active = well fitted inhibition curve with a large enough effect; inconclusive = small, poorly fitted or top-dose-only effect; inactive = no such curve, though single readings can be large or run the other way; tested in mouse RAW 264.7 cells; note: potency is the fitted concentration of half-maximal effect; % is set by controls: 0 for no effect and ±100 for the full control effect; nearly all actives have a fitted effect of over 55% in size
# DT40 TDP1 CPT: DT40-hTDP1 cell growth loss with CPT; actives 12% (n = 420,000); Potency, µM (top dose mostly 46.2 µM), for inactives: top-dose activity change, negative = growth inhibition, actives largely listed as inhibitors; chicken DT40 Tdp1-/-;hTDP1 cells + 20 nM CPT, ATP luminescence, 48 h; note: potency is the fitted concentration of half-maximal effect; % is set by controls: 0 for no effect and ±100 for the full control effect; nearly all actives have a fitted effect of over 55% in size
#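 Chicken DT40 Tdp1-/- cells complemented with human TDP1, 400 cells/well, exposed to compounds plus 20 nM camptothecin for at least 48 h at 37 C; viability read as ATP content by CellTiter-Glo luminescence.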
# Starred values were filed as active, the others as inactive; ? = inconclusive; . = no result given; [ ] = remark or other dose. Shown are actives, neighbours in structure and some others; about 16% of the full set was active somewhere. Unless noted, calls come from the whole dose curve; as a rule, active = well fitted curve in the direction sought with a large enough effect; inconclusive = small, poorly fitted or top-dose-only effect, or another doubt; inactive = no such curve, though single readings can be large; an effect the other way counts as inactive or inconclusive.
# Abbreviations: A = TDP1 inh; B = miR-21 reporter; C = DT40 TDP1 no CPT; D = uPA surface inh; E = DT40 TDP1 CPT
SMILES: Cc1cccc(Nc2nnc(SCC(=O)Nc3cccc(S(=O)(=O)N4CCCCC4)c3)s2)c1
  A: 6%; B: -31%; C: 23µM*; D: -15%; E: 23µM*

SMILES: Cc1cccc(C)c1Nc1nnc(SCC(=O)c2ccc(Br)s2)s1
  A: 4%; B: 0%; C: 16µM*; D: 10%; E: ?

SMILES: Cc1cccc(NC(=O)CSc2nnc(NC(=O)CN3CCCCC3)s2)c1
  A: -1%; B: -8%; C: .; D: .; E: .

SMILES: Cc1ccccc1C(=O)Nc1c2c(nc3ccccc13)CCCC2
  A: -1%; B: -13%; C: -8%; D: -2%; E: 11%

SMILES: NS(=O)(=O)c1ccc(CCNC(=O)c2cc([N+](=O)[O-])ccc2N2CCCCC2)cc1
  A: .; B: 0%; C: ?; D: -5%; E: 3%

SMILES: Cc1csc(SCC(=O)Nc2cccc3nsnc23)n1
  A: -3%; B: 11%; C: ?; D: 2%; E: 7.3µM*

SMILES: Cn1nnnc1SCC(=O)Nc1cc(S(=O)(=O)N2CCCCC2)ccc1Cl
  A: 0%; B: .; C: 23µM*; D: -7%; E: 18µM*

SMILES: Cn1nnnc1SCC(=O)Nc1cc(S(=O)(=O)N2CCCC2)ccc1Cl
  A: 1%; B: 3%; C: 0%; D: 2%; E: 9%

SMILES: O=c1c(CCc2ccccc2)nc2cnc(Oc3ccccc3)nc2n1C[C@H]1CCCO1
  A: .; B: .; C: 18µM*; D: .; E: ?

SMILES: COc1cccc(Cn2c(=O)c(CCc3ccccc3)nc3cnc(OC)nc32)c1
  A: .; B: .; C: 23µM*; D: .; E: ?

SMILES: COc1ncc2nc(CCc3ccccc3)c(=O)n(Cc3cccs3)c2n1
  A: .; B: .; C: 21µM*; D: .; E: ?

SMILES: COc1cccc(-c2cc(C(=O)Nc3cc(OC)c(OC)c(OC)c3)on2)c1
  A: 3%; B: 0%; C: 2.9µM*; D: .; E: 5.8µM*

SMILES: COc1cc(NC(=O)c2cc(-c3ccccc3O)no2)cc(OC)c1OC
  A: 3%; B: 1%; C: 1.6µM*; D: .; E: 2.3µM*

SMILES: COc1ccccc1C(=O)Nc1c2c(nn1-c1ccc([N+](=O)[O-])cc1)CS(=O)(=O)C2
  A: 3%; B: -1%; C: 28%; D: 0%; E: -2%

SMILES: O=C(c1cc(-c2ccco2)nc2ccccc12)N1CCN(c2ccc(F)cc2)CC1
  A: -6%; B: -2%; C: 13µM*; D: -7%; E: 21µM*

SMILES: Cc1ccc(C(=O)c2ccccc2C(=O)OCC(=O)N2CCCC2)cc1
  A: 0%; B: .; C: -1%; D: -4%; E: -6%

SMILES: Cc1ccc(-c2cc(C(=O)N3CCN(c4ccccc4)CC3)c3ccccc3n2)cc1C
  A: 8%; B: 25%; C: 16µM*; D: .; E: ?

SMILES: Cc1ccc(-c2cc(C(=O)n3cnc4ccccc43)c3ccccc3n2)cc1C
  A: -2%; B: 11%; C: ?; D: -20%; E: ?

SMILES: O=C(OCC(=O)N1CCN(C(=O)c2ccco2)CC1)c1cc(-c2ccco2)nc2ccccc12
  A: .; B: -1%; C: ?; D: .; E: ?

SMILES: Cc1cccc(C(=O)OCC(=O)N2CCCCCC2)c1C
  A: -1%; B: .; C: 21µM*; D: -3%; E: ?

SMILES: COc1ccc(S(=O)(=O)N2CCCCCC2)cc1C(=O)N1CCCC(C(F)(F)F)C1 (configuration not stated)
  A: -2%; B: .; C: ?; D: 2%; E: ?

SMILES: COc1ccc(-c2cc(C(=O)N3CCCC(C(F)(F)F)C3)c3ccccc3n2)cc1OC (configuration not stated)
  A: -5%[0.505 µM]; B: .; C: 21µM*; D: 2%; E: ?

SMILES: COc1ccc(-c2cc(C(=O)OCC(=O)N3CCCCC3)c3ccccc3n2)cc1OC
  A: -1%; B: .; C: 21µM*; D: -8%; E: ?

SMILES: COc1ccc(-c2cc(C(=O)N3CCN(c4ccccc4)CC3)c3ccccc3n2)cc1OC
  A: 1%; B: 22%; C: 16µM*; D: -8%; E: ?

SMILES: Cc1ccc2c(C(=O)N3CCN(c4ccccc4)CC3)cc(-c3cccnc3)nc2c1C
  A: 3%; B: -3%; C: 13µM*; D: 0%; E: ?

# Brought forward from above: 4 entries, then new ones.
# Abbreviations: A = TDP1 inh; B = miR-21 reporter; C = DT40 TDP1 no CPT; D = uPA surface inh; E = DT40 TDP1 CPT
SMILES: COc1ccc(-c2cc(C(=O)N3CCCC(C(F)(F)F)C3)c3ccccc3n2)cc1OC (configuration not stated)
  A: -5%[0.505 µM]; B: .; C: 21µM*; D: 2%; E: ?

SMILES: COc1ccc(-c2cc(C(=O)OCC(=O)N3CCCCC3)c3ccccc3n2)cc1OC
  A: -1%; B: .; C: 21µM*; D: -8%; E: ?

SMILES: COc1ccc(-c2cc(C(=O)N3CCN(c4ccccc4)CC3)c3ccccc3n2)cc1OC
  A: 1%; B: 22%; C: 16µM*; D: -8%; E: ?

SMILES: Cc1ccc2c(C(=O)N3CCN(c4ccccc4)CC3)cc(-c3cccnc3)nc2c1C
  A: 3%; B: -3%; C: 13µM*; D: 0%; E: ?

SMILES: COc1ccc(N2CCN(C(=O)c3cc(-c4cccs4)nc4ccccc34)CC2)cc1
  A: 5%; B: -1%; C: ?; D: -6%; E: ?

SMILES: CC(C)n1ncc2c(C(=O)N3CCN(c4ccccc4)CC3)cc(-c3ccccc3)nc21
  A: 2%; B: .; C: ?; D: 4%; E: ?

SMILES: COC(=O)CN1CC(=O)c2ccccc2S1(=O)=O
  A: 17%; B: .; C: .; D: .; E: .

SMILES: O=C(N/N=C/c1ccc(N2CCOCC2)cc1)c1cccs1
  A: .; B: -63%; C: ?; D: -3%; E: ?

SMILES: CC1(C)OC(=O)C2=C(CC(CCc3ccccc3)OC2c2ccccc2)O1 (configuration not stated)
  A: .; B: .; C: 21µM*; D: .; E: 13µM*

SMILES: CC[C@@H]1CC2=C(C(=O)OC(C)(C)O2)[C@@H](c2ccc(Cl)cc2)O1
  A: .; B: .; C: -22%; D: .; E: -19%

SMILES: CC1(C)OC(=O)C2=C(C[C@@H](C3CCCCC3)O[C@H]2c2ccccc2)O1
  A: .; B: .; C: 16µM*; D: .; E: ?

SMILES: CC1(C)OC(=O)C2=C(C[C@@H](CCC(F)(F)F)O[C@H]2c2ccc(F)cc2)O1
  A: .; B: .; C: 5%; D: .; E: 5%

SMILES: CC(C)c1ccc([C@@H]2O[C@H](CCc3ccccc3)CC3=C2C(=O)OC(C)(C)O3)cc1
  A: .; B: .; C: 16µM*; D: .; E: ?

SMILES: CC(C)[C@@H]1O[C@H](CCc2ccccc2)CC2=C1C(=O)OC(C)(C)O2
  A: .; B: .; C: 15µM*; D: .; E: 15µM*

SMILES: CC1(C)OC(=O)C2=C(C[C@@H](C3CCCCC3)O[C@H]2c2ccc(F)cc2)O1
  A: .; B: .; C: ?; D: .; E: -19%

SMILES: CCOC(=O)c1ccc(N2C(=O)CC(Nc3ccc(O)cc3)C2=O)cc1 (configuration not stated)
  A: -4%; B: 10%; C: -16%; D: -9%; E: -3%

SMILES: CC(C)(C)c1ccc(C(=O)NCC(=O)N/N=C/c2cccs2)cc1
  A: 1%; B: -11%; C: -40%; D: 5%; E: -25%

SMILES: CCN(CC)Cc1c(O)ccc2c(=O)c(-c3ccccc3OC)coc12
  A: .; B: 2%; C: -5%; D: 0%; E: 0%

SMILES: O=C(Nc1cccc(O)c1)c1cc2nc(-c3ccccc3)cc(-c3ccccc3)n2n1
  A: 2%; B: -8%; C: -21%; D: 6%; E: -23%

SMILES: COc1ccc(/C=C2\SC(=S)N(CC(=O)N(C)C3CCS(=O)(=O)C3)C2=O)cc1 (configuration not stated)
  A: 2%; B: 1%; C: 6%; D: 1%; E: -19%

SMILES: CC1OC(CCc2cccc(Cl)c2)Cc2[nH][nH]c(=O)c21 (configuration not stated)
  A: .; B: .; C: -58%; D: .; E: -39%

SMILES: C[C@@H]1O[C@H](CCc2cccc(Cl)c2)CC2=C1C(=O)OC(C)(C)O2
  A: .; B: .; C: 2.9µM*; D: .; E: 1.6µM*

SMILES: Cc1ccc(-n2c(=O)c3ccc(C(=O)NCc4ccccc4Cl)cc3n(CC(N)=O)c2=O)cc1
  A: 0%; B: -2%; C: ?; D: .; E: ?

SMILES: COc1ccc(Cl)cc1NC(=O)Cn1c(=O)n(-c2ccc(C)cc2)c(=O)c2ccc(C(=O)NCc3ccccc3Cl)cc21
  A: 2%; B: -5%; C: ?; D: .; E: 4.6µM*

SMILES: O=C(Cn1c(=O)n(-c2ccccc2)c(=O)c2ccc(C(=O)NCc3ccc4c(c3)OCO4)cc21)Nc1ccc(Br)cc1F
  A: -5%; B: 3%; C: 15µM*; D: .; E: ?

SMILES: COc1ccc(NC(=O)Cn2c(=O)n(-c3ccc(OC)cc3)c(=O)c3ccc(C(=O)NCc4ccc(C)cc4)cc32)cc1
  A: 2%; B: -15%; C: -2%; D: .; E: ?
